Data from PubChem BioAssay AID1875 (Broad Institute, 2009).
The list shows a part of the results, in another mix than the full data. Some results for these compounds are left out of this collection, so the calls shown say nothing about other tests. Activity calls are given as the source filed them.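 Rule for the calls: active = lowest replicate activity score at least 50, where 100 means six control SD above control mean; inconclusive = lowest score under 50 but half or more replicates reach 50; inactive = the rest.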

Test: polyadenylation inhibitors in yeast reporter cells, primary screen, luminescence, S. cerevisiae (AID 1875);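 note: yeast exposed to compound for 9 h at 30 °C; higher score means more reporter readthrough which indicates perturbed polyadenylation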
Details: S. cerevisiae SKY197-pL101 polyadenylation reporter, beta-gal luminescence; at 12 µM; stronger effect = higher value; efflux-impaired pdr1/pdr3 knockout yeast; score 100 = 6 SD above DMSO
In the case of `O=C(NCC1(N2CCCCC2)CCCCC1)c1cccc(Cl)c1`, the activity score is reported as inactive: 4.14%.
In the case of `COc1ccc(Cl)cc1C(=O)NCC1(N(C)C)CCCCC1`, the activity score is reported as inactive: -6.19%.
For `COc1cccc(C(=O)NCC2(N3CCCCC3)CCCCC2)c1`, the activity score was inactive: 2.52%.
For `COc1cc(C(=O)NCC2(N(C)C)CCCCC2)c([N+](=O)[O-])cc1OC`, the activity score was inactive: -17.9%.
With `CN(C)C1(CNC(=O)c2ccc(Br)cc2)CCCCC1` the activity score was inactive: -2.83%.
With `CC(C)Oc1ccc(C(=O)NCC2(N(C)C)CCCCC2)cc1` the activity score was inactive: 6.27%.
For `CN(C)c1cccc(C(=O)NCC2(N(C)C)CCCCC2)c1`, the activity score was inactive: 2.98%.
With `COc1ccc(Br)c(C(=O)NCC2(N3CCCCC3)CCCCC2)c1` the activity score was inactive: 11.1%.
In the case of `O=C(OC1CN2CCC1CC2)C(CO)(c1ccccc1)c1ccccc1` (centres undefined), the activity score is reported as inactive: -20.7%.
With `Cc1ccc(C(=O)NCC2(N3CCCCC3)CCCCC2)cc1` the activity score was inactive: -4.56%.
For `COc1cc(SC)ccc1C(=O)NCC1(N(C)C)CCCCC1`, the activity score was inactive: 3.35%.
For `CCN(CC)CC(C)C(C)OC(=O)C(O)(c1ccccc1)c1ccccc1` (centres undefined), the activity score was inactive: -7.24%.
For `CC(C)N1C(=O)CC2(CCN(CCOC(=O)C(O)(c3ccccc3)c3ccccc3)CC2)C1=O`, the activity score was inactive: 10%.
With `CN1[C@@H]2CC[C@H]1CC(OC(=O)C(O)(c1ccccc1)c1ccccc1)C2` (some centres undefined) the activity score was inactive: 1.28%.
With `O=C(NCC1(N2CCCCC2)CCCCC1)c1cc([N+](=O)[O-])ccc1Cl` the activity score was inactive: 4.33%.
In the case of `COc1ccc(C(=O)NCC2(N(C)C)CCCCC2)cc1`, the activity score is reported as inactive: 12.5%.
With `O=C(NCC1(N2CCCCC2)CCCCC1)c1cccc(Br)c1` the activity score was inactive: -4.22%.
In the case of `Cc1cc(C(=O)NCC2(N3CCCCC3)CCCCC2)ccc1[N+](=O)[O-]`, the activity score is reported as inactive: -4.67%.
In the case of `CCN1CCCC(OC(=O)C2(O)c3ccccc3C=Cc3ccccc32)C1` (centres undefined), the activity score is reported as inactive: 4.6%.
In the case of `O=C(NCC1(N2CCCCC2)CCCCC1)c1cc(F)c(F)cc1Cl`, the activity score is reported as inactive: 7.24%.
With `C=CCN1CCN(CCOC(=O)C(O)(c2ccccc2)c2ccccc2)CC1` the activity score was inactive: 4.82%.
For `CN(C)C1CCCC1OC(=O)C(O)(c1ccccc1)c1ccccc1` (centres undefined), the activity score was inactive: 8.63%.
In the case of `CN(C)c1ccc(C(=O)NCC2(N(C)C)CCCCC2)cc1`, the activity score is reported as inactive: -16%.
For `Cc1ccccc1C(=O)NCC1(N2CCCCC2)CCCCC1`, the activity score was inactive: 14.2%.
